Patent publication US8222022B2, “Tri-functionalized cryptophane biosensors” (The Trustees of the University of Pennsylvania, priority 2008, dated 2012)

Assay: Aqueous solubility (visual observation of precipitation, dissolution in aqueous base)
Conditions: 2 mM, 100 mM NaCl

Substance: tri-triazole propionate cryptophane [TTPC]
- pH to which the compound remained soluble: ~5.5
